Ki data for one compound are collected here from patent US20110224247A1, “AZAISOQUINOLINONE DERIVATIVES AS NK3 ANTAGONISTS” (H. LUNDBECK A/S, priority 2010, published 2011).

Protein sequences, listed by entry. Tags and fused reporters are not part of them.
UniProt P29371, whole entry: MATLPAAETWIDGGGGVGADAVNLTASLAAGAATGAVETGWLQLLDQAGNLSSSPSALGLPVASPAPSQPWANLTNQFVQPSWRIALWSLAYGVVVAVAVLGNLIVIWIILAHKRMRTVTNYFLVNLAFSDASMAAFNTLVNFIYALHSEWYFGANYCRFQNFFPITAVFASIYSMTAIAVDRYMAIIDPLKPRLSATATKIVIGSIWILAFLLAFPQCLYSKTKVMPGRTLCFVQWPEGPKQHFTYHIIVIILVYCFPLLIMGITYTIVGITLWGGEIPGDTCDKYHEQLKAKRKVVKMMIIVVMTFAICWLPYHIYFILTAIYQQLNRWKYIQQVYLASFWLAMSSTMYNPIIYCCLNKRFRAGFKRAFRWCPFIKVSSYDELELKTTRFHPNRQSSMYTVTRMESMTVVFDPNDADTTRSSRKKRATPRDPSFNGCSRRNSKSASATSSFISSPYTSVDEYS

For the experiment, the target named is human NK3 receptor (Homo sapiens, UniProt P29371). Briefly: NK3 receptor binding assay. The conditions noted are these: read-out: Affinity (Ki/nM); filter-based competition binding vs ~0.05 nM 3H-AE93103, membranes of BHK cells expressing human NK3; Ki by Cheng Prusoff. How it is done:
Membranepreparation: BHK cells stably expressing the human NK3 receptor were seeded in harvesting plates in Dulbeccos MEM containing GlutaMax (862 mg/l), 1 mM sodium pyruvate, 10% fetal calf serum, 1% Pen/Strep, 1 mg/ml G418 and were grown at 34° C. in a humidified atmosphere containing 10% CO2. To increase receptor expression, 10 μM trichotatin A was added to the media 24 hours before harvest of the cells at a confluency of app 90%. Prior to the harvesting, the cells were washed twice with PBS without Mg^2+ and Ca^2+ and subsequently scrapped of in 10 ml PBS pr harvesting plate. The cells suspension were centrifuged at 1500×G in three minutes before resuspension in 15 mM Tris-HCl pH 7,5 buffer containing 2 mM MgCl2; 0,3 mM EDTA and 1 mM EGTA (buffer A). The cell suspention was homogenised and subsequently centrifuged at 40000×G in 30 minutes. The membrane-pellet was resuspended in buffer A containing 250 mM sucrose, alliquoted and stored at −80° C.
Affinity assay description: The assay is performed as a filter-based competition-binding in a 50 mM Tris pH 7.4 assay buffer containing 120 mM NaCl and 3 mM MnCl2. App 0.05 nM ^3H-AE93103 was mixed with test compounds before addition of 0.15 μg of a homogenised NK3 membrane preparation in a total volume of 300 μl. […] The filter is dried and added scintillation liquid before the plate is counted in a topcounter 5 minutes pr well. […]

As for `CCCNn1c(C)c(C(=O)N[C@H](c2ccccc2)C2CC2)c2cnccc2c1=O`, the Ki came to 330 nM.
